# Only some compounds are listed: those with a hit (about 2.8% of all), similar ones and a draw of the others.
# Wnt act: activates Wnt/beta-catenin signaling in a reporter cell assay. activation, % at 9.35 µM. activator, plate reader. hit rate 1.2% among 300,000; in the data active = activation above about 30%, passing the limit was not always enough; inconclusive = no clear call, values can overlap the other calls;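 note: 0% = neutral control wells and 100% = positive control wells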
# Yeast UUG start: alters start codon recognition fidelity in yeast; S. cerevisiae UUG-firefly luciferase reporter, luminescence/redox ratio; activity score, % at 18.7 µM; hit rate 0.13% among 350,000;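 active = replicate mean at a twofold rise or more, about +100% in these data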;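 also: firefly luciferase made from a UUG start codon reports start codon fidelity; reporter light over untreated wells divided by growth signal over untreated wells; some hits fall short of that in this replicate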
# miR122 inh: miR-122 inhibition in Huh7 cells | hit rate 0.3% among 340,000 | AID 602342 | Huh7 miR-122 Renilla luciferase sensor, 48 h; neutral wells = 0, positive control = 100 | activation (reporter increase), % at 12.5 µM;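 active = mean replicate activation score at least 90 and every replicate individually at or above 90; inconclusive = only one of the two criteria met; inactive = neither criterion met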;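 note: higher luciferase means less miR-122 activity so hits act as miR-122 inhibitors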
# PglD inh: blocks C. jejuni PglD acetyltransferase activity; purified PglD enzyme, DTNB colorimetric CoA detection; inhibition, % at 12.5 µM; hit rate 0.098% among 360,000; AID 602405; in the data active = inhibition above about 16%, passing the limit was not always enough; inconclusive = no clear call, values can overlap the other calls
# esBAF inh: SWI/SNF esBAF complex inhibition; mouse ES cells, Bmi1-luciferase knock-in reporter, 24 h; 100% = twice the neutral-well signal; AID 602393; hit rate 2% among 350,000; reporter increase, % at 12.5 µM; in the data active = activation above about 40%; inconclusive = no clear call, values can overlap the other calls;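 note: 0% = median of the plate's neutral control wells and 100% = double that signal; a rise in the Bmi1 reporter signal indicates esBAF inhibition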
# MITF act: MITF TRPM1 promoter activation in melanoma cells. SK-MEL-5 TRPM1-promoter luciferase, 24 h; % of positive control, neutral wells = 0. activation, % at 12.5 µM. hit rate 0.75% among 300,000;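 active = mean activation of at least 80% with every replicate also reaching 80%; inconclusive = mean reaches 80% but some replicate falls short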;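 note: 0% = neutral control wells and 100% = parthenolide positive control wells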
# The depositor's hits bear a star; u = inconclusive; x = not tested or not shown; [ ] = dose if it differs, or a comment.
no.	mol	Yeast UUG start	Wnt act	miR122 inh
1	O=C(COc1ccccc1Br)NC(=O)NC1CCCC1	-0.1	11.4	7.3
2	O=C(COc1ccc(C(=O)c2ccccc2)cc1)NC1CCCCCC1	x	48.6*	x
3	O=C(COc1ccccc1Br)NC1CC1	-25.7	-0.7	2.8
4	O=C(COc1ccc(C(=O)c2ccccc2)cc1)NC1CCCCC1	-5.8	-3.2	-3.0
5	CN1C(=O)c2cc(NC(=O)C3CC3)ccc2OC[C@H]2O[C@@H](CC(=O)NC3CCC3)CC[C@H]21	12.1	x	15.0[16.7 µM]
6	O=C1NC(c2ccc(O)cc2)Nc2ccccc21 (stereo unspecified)	-12.1	8.6	x
7	CSc1ccc(C2NC(=O)c3ccccc3N2)cc1 (stereo unspecified)	-12.8	23.1	27.8
8	CCc1nnc(NC(=O)Nc2ccccc2OC)s1	-14.3	-4.5	9.5
9	O=C(Nc1nnc([C@@H]2C[C@H](O)[C@@H](CO)O2)s1)Nc1ccccc1F	-28.0	39.1*	0.3
10	COc1ccccc1NC(=O)Nc1nnc(C(C)c2ccccc2)s1 (stereo unspecified)	-16.8	-1.0	0.0

no.	PglD inh	MITF act	esBAF inh
1	-0.2	140.8*	39.3
2	x	-8.0	x
3	1.6	8.7	x
4	1.5	10.2	x
5	9.5	x	0.2
6	0.6	x	18.6
7	-8.0	x	64.9*
8	-2.0	134.6*	u
9	-3.7	x	6.0
10	-3.0	10.8	53.0*

# Next part:
no.	mol	Yeast UUG start	Wnt act	miR122 inh
11	O=C(Nc1nnc(Cc2ccc(F)cc2)s1)Nc1ccccc1F	-10.0	6.4	4.4
12	O=C(Nc1nnc(Cc2ccccc2F)s1)Nc1ccccc1F	-18.2	5.1	2.1
13	C[C@@H]1CN([C@H](C)CO)C(=O)c2cc(NC(=O)CCCN(C)C)ccc2O[C@@H]1CN(C)C	-0.1	x	-3.1[16.7 µM]
14	C[C@@H]1CCCCO[C@@H](CN(C)C(=O)Nc2cccc3ccccc23)[C@H](C)CN([C@H](C)CO)C(=O)c2cc(NC(=O)c3ccccc3)ccc2O1	-7.4	x	-16.0[16.7 µM]
15	CN(C)c1ccc(NC(=O)Cn2cc3c(n2)CCCC3)cc1	-17.1	7.5	x
16	Cc1ccc(S(=O)(=O)N(C)C[C@H]2OCCCC[C@@H](C)Oc3ccc(NS(=O)(=O)c4cn(C)cn4)cc3C(=O)N([C@@H](C)CO)C[C@H]2C)cc1	3.4	x	1.8[16.7 µM]
17	CC12CN(C(=O)c3ccccc3Br)CC(C)(CN(C(=O)c3ccccc3Br)C1)C2=O	x	40.8*	-1.0
18	c1ccc(Oc2cccc(OCCCCSc3ncccn3)c2)cc1	1.1	-2.0	-1.7
19	Nc1cc(N)nc(SCCOc2ccccc2)n1	-10.0	x	-2.8
20	COc1ccc(OCCCSc2ncccn2)cc1	-19.1	x	1.7

no.	PglD inh	MITF act	esBAF inh
11	2.1	14.5	8.1
12	-14.1	29.0	43.6*
13	-1.2	x	2.7
14	1.2	x	15.8
15	5.4	2.8	43.8*
16	-1.3	x	-3.9
17	x	x	-5.2
18	-9.8	4.0	-2.6
19	-6.4	56.2	37.9
20	-4.3	112.9*	56.8*

# Later entries:
no.	mol	Yeast UUG start	Wnt act	miR122 inh
21	COc1ccc(OCCSc2ncccn2)cc1	-32.0	x	-2.7
22	COc1cccc(OCCCCSc2ncccn2)c1	-10.5	x	-3.9
23	COc1cccc(OCCSc2nc(N)cc(N)n2)c1	-29.2	x	0.9
24	Cc1ccc(OCCCSc2ncccn2)cc1C	-8.0	x	-3.9
25	C[C@@H]1CCCCO[C@@H](CN(C)C(=O)Cc2ccccc2)[C@@H](C)CN([C@H](C)CO)C(=O)c2cc(NC(=O)NC3CCCCC3)ccc2O1	10.3	x	0.3[16.7 µM]
26	Clc1ccc(OCCSc2ncccn2)cc1	x	x	-5.8
27	CC(C)OP(=O)(Nc1cccc2ccccc12)OC(C)C	-8.6	66.9*	-5.1
28	CCC/C(=C1/c2ccccc2C(=O)N1c1ccccc1)c1ccc2[nH]ccc2c1	-17.9	-6.6	1.9
29	O=C1c2ccccc2/C(=C\c2ccc3[nH]ccc3c2)N1c1ccccc1	-27.9	26.3	3.9
30	O=C(C[C@@H]1CC[C@@H]2[C@H](COC[C@@H](O)CN2Cc2cccc(C(F)(F)F)c2)O1)NCc1ccc(F)cc1	3.4	x	-5.0[16.7 µM]

no.	PglD inh	MITF act	esBAF inh
21	-1.0	37.7	u
22	-5.7	40.9	54.6*
23	0.5	x	54.5*
24	-2.8	u	69.9*
25	1.8	x	-1.9
26	x	99.5*	x
27	x	-4.1	x
28	-0.4	-24.6	-14.1
29	3.8	25.8	45.3*
30	0.4	x	2.7

# Rewritten with values ahead of the structure: part of the list above.
entry | Yeast UUG start | Wnt act | miR122 inh | PglD inh | MITF act | esBAF inh | canonical_smiles
26 | x | x | -5.8 | x | 99.5* | x | Clc1ccc(OCCSc2ncccn2)cc1
29 | -27.9 | 26.3 | 3.9 | 3.8 | 25.8 | 45.3* | O=C1c2ccccc2/C(=C\c2ccc3[nH]ccc3c2)N1c1ccccc1
23 | -29.2 | x | 0.9 | 0.5 | x | 54.5* | COc1cccc(OCCSc2nc(N)cc(N)n2)c1
30 | 3.4 | x | -5.0[16.7 µM] | 0.4 | x | 2.7 | O=C(C[C@@H]1CC[C@@H]2[C@H](COC[C@@H](O)CN2Cc2cccc(C(F)(F)F)c2)O1)NCc1ccc(F)cc1

# Further records follow:
no.	mol	Yeast UUG start	Wnt act	miR122 inh
31	Cc1cccc(C(=O)Nc2ccc(C(=O)N/N=C/c3ccc4c(c3)OCO4)cc2)c1	-12.5	-2.1	x
32	O=C(N/N=C/c1ccc(O)cc1)c1cc(-c2ccc3c(c2)OCO3)n[nH]1	-11.3	0.0	1.0
33	Cc1nc2ccccn2c1C(=O)N/N=C/c1ccc2c(c1)OCO2	-17.4	0.3	-4.0
34	O=C(N/N=C/c1ccccc1)c1cc(-c2ccc3c(c2)OCO3)n[nH]1	-21.8	-6.9	0.3
35	Cc1cccc(C(=O)Nc2cccc(C(=O)N/N=C/c3ccc4c(c3)OCO4)c2)c1	-11.6	14.5	9.5
36	Cc1ccccc1C(=O)Nc1cccc(C(=O)N/N=C/c2ccc3c(c2)OCO3)c1	0.9	0.9	x
37	O=C(C[C@H]1CC[C@@H]2[C@H](COC[C@@H](O)CN2C(=O)c2cccnc2)O1)Nc1ccc(-c2ccccc2)cc1	x	x	10.7[16.7 µM]
38	CCCC(=O)Nc1ccc2c(c1)C(=O)N(C)C[C@@H](OC)[C@@H](C)CN(Cc1ccccn1)[C@@H](C)CO2	-16.7	x	x
39	C[C@H](CO)N1C[C@H](C)[C@H](CN(C)C(=O)Nc2ccc(F)cc2)OCCCC[C@H](C)Oc2ccc(NC(=O)CCCN(C)C)cc2C1=O	-7.2	x	5.1[16.7 µM]
40	COc1ccc(CCC(=O)N/N=C/c2ccc3c(c2)OCO3)cc1	x	1.9	x

no.	PglD inh	MITF act	esBAF inh
31	12.6	-9.5	1.4
32	0.8	6.1	22.6
33	-4.1	87.5*	x
34	2.6	12.1	49.2*
35	-0.2	54.6	60.5*
36	-1.7	38.5	42.6*
37	-1.0	x	0.0
38	-2.2	x	1.4
39	-3.7	x	8.1
40	x	17.8	56.4*

# The results go on.
no.	mol	Yeast UUG start	Wnt act	miR122 inh
41	Cc1ccc(C(=O)N/N=C\c2ccc3c(c2)OCO3)cn1	-15.5	3.7	-4.1
42	Cc1ccc(C(=O)NN=Cc2ccc3c(c2)OCO3)cc1	-9.8	8.5	-0.2
43	COc1ccc(OC)c(S(=O)(=O)N/N=C\c2ccc3c(c2)OCO3)c1	-14.6	11.0	104.9*
44	O=C(CCc1ccccc1)NCC(=O)N/N=C/c1ccc2c(c1)OCO2	x	15.5	x
45	CC(=O)c1c(C)[nH]c(C(=O)OCC(=O)c2c[nH]c3ccccc23)c1C	9.3	17.2	x
46	CC(=O)OCC(=O)c1c[nH]c2ccccc12	-12.2	-1.1	0.0
47	CC(=O)c1c(C)[nH]c(C(=O)OCC(=O)c2ccc(C)s2)c1C	-11.3	20.8	-2.2
48	Cc1ccc(C(=O)COC(=O)c2ccc(Cl)c(N)c2)s1	-16.0	30.0	x
49	O=C(OCC(=O)c1ccc(Br)s1)c1ccc(O)cc1	-46.2	42.8*	-3.3
50	CCCNC(=O)N1C[C@@H](O)COC[C@H]2O[C@@H](CC(=O)N[C@@H]3CCN(Cc4ccccc4)C3)CC[C@@H]21	32.7	x	2.3[16.7 µM]
51	Cc1cccc(-c2nc(C#N)c(NC3CCCCC3)o2)c1	2.8	x	8.7

no.	PglD inh	MITF act	esBAF inh
41	-2.4	3.7	11.3
42	-5.6	45.4	48.1*
43	-1.1	42.9	47.0*
44	x	15.3	x
45	1.2	6.1	53.0*
46	-1.0	x	-1.0
47	-3.1	61.8	56.2*
48	-3.9	37.5	92.1*
49	-4.2	40.1	75.8*
50	5.3	x	2.1
51	2.1	100.0*	61.5*

# High-throughput results from PubChem.
